# An excerpt weighted towards active compounds, which were near 0.43% of everything screened.
# GIV Gai3 FP: inhibitors of GIV GBA-motif binding to rat Galpha-i3; P08753; Galpha-i3/FITC-GIV peptide fluorescence polarization, 90 min; stronger effect = lower value; scaled: aluminum fluoride 0%, vehicle 100%; percent of control (FP), % (no concentration beside the values); actives 0.42% (n = 210,000); AID 1224905;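 active means replicate mean at 85% of control or lower, very high polarization wells dropped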;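 further: wells of about 15 µL received 100 nL stock; the first replicate is given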
# HCMV UL50-53 inh: disrupts HCMV UL50-UL53 complex binding | inhibition, % (no concentration beside the values) | HTRF UL50-UL53 interaction, normalized percent inhibition | AID 1918969 | 190,000 tested, 0.15% active; in the data active = inhibition above about 27%, passing the limit was not always enough
# GIV Gai FP conf: GIV-Galpha-i3 inhibition, FP confirmation; shares compounds with GIV Gai3 FP; FITC-GIV peptide binding to Galphai3, fluorescence polarization; stronger effect = lower value; fluorescence polarization, mP at 100 µM; 580 tested, 38% active;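 active = inhibition score of 15 or more, meaning 100 minus mean polarization as percent of control over three replicates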
# GIV-Gai AS conf: confirmation of inhibitors of GIV binding to human Galpha-i3. AID 1259351. shares compounds with GIV Gai3 FP. AlphaScreen counts at 100 µM. 580 tested, 39% active. AlphaScreen Galphai3-GIV binding, purified proteins, 90 min; stronger effect = lower value;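 active = inhibition score at or above a set limit, where the score is 100 minus the three-replicate mean percent of control signal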
# A number is an active result; 0 = inactive; - = no result.
SMILES,GIV Gai3 FP,HCMV UL50-53 inh,GIV Gai FP conf,GIV-Gai AS conf
O=C(C1CC1)N1CCc2sc(S(=O)(=O)NCc3cccs3)cc2C1,0,-,-,-
Cn1nnnc1SCC(=O)CSc1nnnn1C,-,0,-,-
CCOC(=O)c1c(C)oc2c1c(O)c(N=O)c1ccccc12,42.0,0,47.5,0
CCOC(=O)c1c(C)oc2c1c(C=NC(C)c1ccccc1)c(O)c1ccccc12 (configuration not stated),0,-,-,-
O=C(NCCc1ccccc1)C1CCN(c2cnccn2)CC1,0,0,-,-
O=C(NC1CCN(Cc2ccccc2)CC1)C1CCN(c2cnccn2)CC1,66.6,0,0,0
CC(C)C(C(=O)O)N1C(=O)/C(=C/C=C/c2ccco2)SC1=S (configuration not stated),57.9,81.8,54.3,1448
O=C(O)c1cccc(N2C(=O)/C(=C\C=C\c3ccco3)SC2=S)c1,73.5,0,0,0
Cc1ccc(/C=C2\SC(=S)N(C(CCC(=O)O)C(=O)O)C2=O)cc1 (configuration not stated),-,0,-,-
Cc1ccc(/C=C2\SC(=S)N(C(C(=O)O)C(C)C)C2=O)cc1 (configuration not stated),0,-,-,-
O=C(O)c1cccc(N2C(=O)/C(=C/c3ccccc3)SC2=S)c1,-,0,-,-
O=C(O)CCC(C(=O)O)N1C(=O)/C(=C/C=C/c2ccco2)SC1=S (configuration not stated),39.1,75.0,46.8,2132
CC(C(=O)O)N1C(=O)/C(=C\c2ccco2)SC1=S (configuration not stated),-,0,-,-
CC(C(=O)O)N1C(=O)/C(=C/c2ccco2)SC1=S (configuration not stated),75.3,0,55.5,3227
COCCCNC(=O)CN(C)S(=O)(=O)c1ccc2c(c1)c(=O)n(C)c(=O)n2C,0,0,-,-
COc1ccccc1C(=O)Nc1ccccc1Sc1cc(C)nc2ncnn12,0,0,-,-
COCC(=O)Nc1nnc2n1CCCS2,0,-,-,-
CCOc1ccc(C(c2c(C)[nH]n(-c3ccccc3)c2=O)c2c(C)[nH]n(-c3ccccc3)c2=O)cc1OC,0,0,-,-
Cc1[nH]n(-c2ccccc2)c(=O)c1C(c1ccccc1OCc1ccccc1)c1c(C)[nH]n(-c2ccccc2)c1=O,0,-,-,-
CCOc1cc(C(c2c(C)[nH]n(-c3ccccc3)c2=O)c2c(C)[nH]n(-c3ccccc3)c2=O)ccc1OCc1ccccc1,81.7,-,57.9,0
CCOc1cc(C(c2c(C)[nH]n(-c3ccccc3)c2=O)c2c(C)[nH]n(-c3ccccc3)c2=O)ccc1OC,69.5,-,0,9976
c1ccc2c(c1)nnn2Cc1ccc(Cn2nnc3ccccc32)cc1,0,0,-,-
CC(=O)Nc1scc(C)[n+]1C,-,0,-,-
CCC(=O)Nc1cccnc1-c1ccc(C(=O)Nc2cc(OC)cc(OC)c2)cc1,0,-,-,-
CCN(C(=O)Cn1ncc2c(=O)oc3ccccc3c21)c1cc(OC)ccc1OC,0,0,0,0
SMILES,GIV Gai3 FP,HCMV UL50-53 inh,GIV Gai FP conf,GIV-Gai AS conf
CCOc1ccccc1N(CC)C(=O)Cn1ncc2c(=O)oc3ccccc3c21,0,0,-,-
CC(C)(O)CC1(CO)CCCCC1,0,0,0,0
CCOc1cc(C=C2C(=O)NC(=O)NC2=O)cc(Cl)c1OC(=O)c1ccc(OC)cc1,75.2,49.1,0,0
CCOc1cc(/C=C2\SC(=S)NC2=O)cc(Cl)c1OC(=O)c1ccc(OC)cc1,0,-,-,-
CCc1nc2nc3c(c(N4CCN(c5cc(C)ccc5C)CC4)n2n1)CCC3,0,0,-,-
COCCCNC(=O)c1ccc(N2CCCN(Cc3ccccc3C)C2=O)cc1,0,0,-,-
CN(C)c1ccc(C(CNC(=O)CN2C(=O)c3ccccc3C2=O)N2CCc3ccccc3C2)cc1 (configuration not stated),0,0,-,-
O=C(O)c1cc(O)c(O)c(O)c1,-,0,-,-
O=C(O)c1cc(O)[nH]c(=O)c1,78.3,82.7,42.1,10996
Cc1cccn2c(=O)cc(COc3cccc(NC(=O)COc4ccccc4)c3)nc12,0,-,0,0
Cc1cccn2c(=O)cc(COc3cccc(NC(=O)COc4ccc(F)cc4)c3)nc12,0,-,-,-
COc1cccc(=O)c2c(C)oc(C)c12,24.9,0,37.2,7201
CCOc1cc(/C=C/c2ccccc2OC)cc(=O)c2c(C)oc(C)c12,0,-,-,-
CCOC(=O)c1c(-c2ccccc2)c[nH]c1N,59.8,0,38.6,19838
CCOC(=O)c1c(-c2ccccc2)cn2ccccc12,0,0,-,-
Cc1cc(=O)n(-c2ccc(O)cc2)[nH]1,77.0,68.9,49.4,0
Cc1cc(=O)cc(C)n1-c1ccc(O)cc1,-,0,-,-
Cc1cc(C)c2oc(-c3cccc(NC(=O)c4ccc(Br)o4)c3)nc2c1,0,0,0,0
O=C(Nc1ccc(-c2nc3ccccc3o2)cc1)c1ccc(Br)o1,0,0,-,-
O=C(Nc1cc(-c2nc3ccccc3o2)ccc1Cl)c1ccc(Br)o1,69.0,0,0,0
Cc1cc(C)c2oc(-c3cccc(NC(=O)c4ccco4)c3)nc2c1,0,0,-,-
CCOC(=O)C(Cc1c[nH]c2ccccc12)NC(=O)COc1ccc(Br)cc1 (configuration not stated),0,0,-,-
Cc1ccc(-c2csc3c2ncn2c(=O)n(CC(=O)NCCc4ccc(Cl)cc4)nc32)cc1,0,-,-,-
Cn1c(=O)oc2cc(S(=O)(=O)CCC(=O)NC3CCN(Cc4ccccc4)CC3)ccc21,0,0,-,-
CC1=CC(=O)C(N(CCO)CCO)=CC1=O,-,0,-,-
SMILES,GIV Gai3 FP,HCMV UL50-53 inh,GIV Gai FP conf,GIV-Gai AS conf
CCN(CC)c1ccc(/C=c2\sc3ncnn3c2=O)cc1,57.3,-,34.8,0
COc1ccc(/C=c2\sc3ncnn3c2=O)cc1,-,0,-,-
CC1CN(S(=O)(=O)c2cccc(C(=O)OCC(N)=O)c2)CC(C)O1 (configuration not stated),-,0,-,-
COc1ccc(/C=C2\SC(=O)N(CCC(=O)Nc3c(C)n(C)n(-c4ccccc4)c3=O)C2=O)cc1,0,0,-,-
COc1ccc(/C=C2/SC(=S)N(CCC(=O)Nc3c(C)n(C)n(-c4ccccc4)c3=O)C2=O)cc1,57.2,0,0,0
CCOC(=O)C(C)Sc1nnc(NC(=O)Nc2ccc(F)cc2)s1 (configuration not stated),0,0,-,-
Cc1cc(C(=O)Nc2ccc(CC(=O)O)cc2)cs1,0,0,-,-
C#CCn1c(C2CC(=O)N(c3cccc(Cl)c3)C2)nc2ccccc21 (configuration not stated),0,0,-,-
COn1c(C)c(C)c2c3no[n+]([O-])c3ccc21,72.0,0,0,22452
Cc1c(C)[n+]([O-])c2ccc3c(non3O)c12,0,0,-,-
Clc1ccc(CSc2nnc(-c3ccc(Br)cc3)o2)cc1,0,0,-,-
O=S(=O)(c1cccc2nonc12)N1CCC(Cc2ccccc2)CC1,0,-,0,0
O=S(=O)(c1cccc2nsnc12)N1CCC(Cc2ccccc2)CC1,0,-,-,-
C[C@H](O)C(=O)C1=Nc2c(nc(N)[nH]c2=O)NC1,72.8,0,0,29102
CC(O)C(O)[C@H]1CNc2nc(N)[nH]c(=O)c2N1 (some centres not stated),0,0,-,-
NC1=NC(=O)C(CC(=O)OCC(=O)Nc2cc(Cl)cc(Cl)c2)S1 (configuration not stated),-,0,-,-

# Screens deposited in PubChem by ICCB-Longwood Screening Facility, Harvard Medical School.
